# Test results from PubChem BioAssay AID894 (National Center for Advancing Translational Sciences (NCATS), 2007).
# Amino acid sequences for entries named in this document (tags omitted).
# UniProt P15428, whole entry: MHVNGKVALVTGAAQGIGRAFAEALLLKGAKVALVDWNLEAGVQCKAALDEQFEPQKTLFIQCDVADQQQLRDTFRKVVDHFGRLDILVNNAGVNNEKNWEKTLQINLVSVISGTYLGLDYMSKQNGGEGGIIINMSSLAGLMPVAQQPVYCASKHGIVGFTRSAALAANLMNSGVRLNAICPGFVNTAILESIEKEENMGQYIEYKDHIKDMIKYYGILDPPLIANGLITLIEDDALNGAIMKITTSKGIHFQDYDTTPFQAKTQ
# The list shows a part of the results, in another mix than the full data. Results filed as inconclusive are left out. Active and inactive are the calls of the source. Calls follow the shape of the dose curve; as a rule, active = well fitted inhibition curve with a large enough effect (not every such curve was filed as active); inconclusive = small, poorly fitted or top-dose-only effect, or another doubt; inactive = no such curve, though single readings can be large or run the other way.
# Target: 15-hydroxyprostaglandin dehydrogenase [NAD(+)] (Homo sapiens) (UniProt P15428)
# Test: qHTS Assay for Inhibitors of HPGD (15-Hydroxyprostaglandin Dehydrogenase); also: test concentration not given here
# Conditions: purified HPGD, NADH fluorescence kinetic, PGE2 substrate; active compounds read low
# % is scaled to controls: 0 for no effect and ±100 for the full control effect.
row,Compound,"activity change, negative = inhibition"
1,[N-]=[N+]=NCC(O)CN=[N+]=[N-] (configuration not stated),inactive: -11.9%
2,[N-]=[N+]=NCC(N)=O,inactive: -13.4%
